Growth rescue data for 50 compounds are collected here from PubChem BioAssay AID1347071 (National Center for Advancing Translational Sciences (NCATS), 2019).

Only a part is listed here, and it is no random draw. Active and inactive are the calls of the source. Calls follow the shape of the dose curve; as a rule, active = well fitted activation curve with a large enough effect; inconclusive = small, poorly fitted or top-dose-only effect; inactive = no such curve, though single readings can be large or run the other way.

This experiment can be described thus: qHTS for compounds that reverse cellular toxicity of Amyloid beta (A-beta) peptide in yeast: Primary Screen. Also: nearly all actives have a fitted effect of over 55% in size. The following applies: yeast expressing A-beta42, growth rescue, OD600, 48 h, 0% DMSO, 100% iron-clioquinol control; at 46.1 µM (top of the series). From the text:
The A-beta peptide is produced by the processing of the amyloid precursor protein (APP) by two proteases, beta and gamma secretases. […] A-beta42 is regarded as the most amyloidogenic form due to its hydrophobicity; however, precisely how A-beta42 induces neurotoxicity is unclear. To understand further this biology and its potential therapeutic implications for human neurodegenerative disease, a quantitative high-throughput screen for compounds that reverse the cellular toxicity of the A-beta peptide was developed. A yeast based screen was used because it recapitulates the salient feature of protein mis-folding disorder accurately. This cell-based phenotypic screen provides a significant, unbiased advantage by letting the compounds and models inform us which proteins or pathways are most relevant. The ideal chemical candidates would therefore have activity in both our primary yeast and secondary neuronal toxicity assays, as well as in mouse models. They will be valuable tools for dissecting diverse protein homeostasis pathologies and could potentially become the focus for future pre-clinical development. For this luminescence assay, inhibition of A-beta rescues the toxic effect in the yeast cell, resulting in increase of signals and the desired phenotype of "Activator". This screen is run against the Molecular Libraries Small Molecule Repository (MLSMR) and the NCGC Sytravon Library Collection.
NIH Chemical Genomics Center [NCGC]
NIH Molecular Libraries Probe Centers Network [MLPCN]
Assay Submitter (PI): Susan Lindquist, Whitehead Institute, Massachusetts Institute of Technology
[1] Vassar R,et al (1999). Beta-secretase cleavage of Alzheimer's amyloid precursor protein by the transmembrane aspartic protease BACE. Science. 286: 735-741.
[2] Yan R, et al (1999). Membrane-anchored aspartyl protease with Alzheimer's disease beta-secretase activity. Nature. 402: 533-536.
Two and a half microliter / well of yeast growth medium were dispensed in a 1536 assay plate. Compounds were pinned using the Kalypsys robotic system followed by addition of 2.5 uL / well yeast solution. The assay plates were incubated at 30 C. After 48 hr, the absorbance signal at 600 nm was obtained using the PerkinElmer ViewLux plate reader to assess yeast growth. The data was normalized to the positive control of an equimolar mixture of ferric chloride (FeCl3) and clioquinol and to the negative control DMSO.
On the technique in general: qHTS replaces the single test concentration by a dilution series.
For the compound `O=C(Nc1ccncc1[N+](=O)[O-])c1ccc([N+](=O)[O-])cc1[N+](=O)[O-]`, the growth rescue was inactive: 18.7%.

For `O=C(COc1ccccc1)OC1CN2CCC1CC2` (stereo not given), the growth rescue is inactive: 6.52%.

On to `O=C(O)C(=O)c1ccc(N(CCCl)CCCl)cc1`, for which the growth rescue is inactive: 2.68%.

For `CCOC(=O)c1ccc(NC(=O)C(C)(CCl)SC)cc1` (stereo not given), the growth rescue was inactive: 13.1%.

In the case of `CSc1ccc(Nc2c([N+](=O)[O-])cc([N+](=O)[O-])cc2[N+](=O)[O-])cc1`, the growth rescue is inactive: -37.4%.

Turning to `O=C(OC1CN2CCC1CC2)c1cccc([N+](=O)[O-])c1` (stereo not given), the growth rescue is inactive: -16%.

Regarding `CC1CCNP(=O)(N(CCCl)CCCl)O1` (stereo not given), the growth rescue was inactive: -4.59%.

Take `CCOC(=O)Nc1ccc([As](=O)(O)O)c(O)c1`: the growth rescue was inactive: 9.35%.

With `O=C(O)C(O)c1ccc(N(CCCl)CCCl)cc1` (stereo not given), the growth rescue is inactive: -4.86%.

With `Cc1cc(SC(NC(=O)c2ccccc2)C(Cl)(Cl)Cl)nc(C(C)C)n1` (stereo not given), the growth rescue was inactive: -1.2%.

Turning to `CCCCOc1ccc(C(=O)NCC2(N3CCCCC3)CCCCC2)cc1OC`, the growth rescue is inactive: -8.96%.

On to `COP(=O)(OC)N1CC1c1ccccc1` (stereo not given), for which the growth rescue is inactive: -1.37%.

As for `CCOC(=O)Nc1cccc([As](=O)(O)O)c1`, the growth rescue is inactive: -24.5%.

Regarding `O=[N+]([O-])c1ccc(Nc2ccc(Oc3ccc([N+](=O)[O-])cc3[N+](=O)[O-])cc2)c([N+](=O)[O-])c1`, the growth rescue was inactive: 12.4%.

Regarding `O=P(Nc1ccccn1)(c1cccc2ccccc12)c1cccc2ccccc12`, the growth rescue was inactive: 10%.

On to `Cc1cc(SC(NC=O)C(Cl)(Cl)Cl)ncn1` (stereo not given), for which the growth rescue was inactive: -17.5%.

Consider `O=[N+]([O-])c1ccc(-c2cc([N+](=O)[O-])c(O)c([N+](=O)[O-])c2)cc1`, for which the growth rescue is inactive: -30.7%.

As to `COc1cc(C(=O)NCC2(N3CCOCC3)CCCCC2)ccc1OCC(C)C`, the growth rescue was inactive: 9.83%.

Regarding `C[As](=O)(O)c1cccc(C(=O)O)c1`, the growth rescue was inactive: 5.63%.

As to `O=[As](O)(c1ccc(O)cc1)c1ccccc1O`, the growth rescue is inactive: -4.24%.

With `Cc1ccc2nc3c(c(C)c2c1)CC(C(Cl)Cl)S3` (stereo not given), the growth rescue is inactive: -30.8%.

Consider `[N-]=[N+]=NC1CCCCC1NC(=O)c1cc([N+](=O)[O-])cc([N+](=O)[O-])c1` (stereo not given), for which the growth rescue was inactive: -9.1%.

In the case of `Cc1ccc(OP(=O)(Nc2ccc([N+](=O)[O-])cn2)Oc2ccc(C)cc2)cc1`, the growth rescue was inactive: -18.9%.

Take `COC(=O)C1(C)COP(=O)(N2CCCCCC2)OC1` (stereo not given): the growth rescue was inactive: 6.83%.

For the compound `CC(C)c1ccc(OP(=O)(Nc2ccccn2)Oc2ccccc2F)cc1` (stereo not given), the growth rescue is inactive: 24.1%.

With `ClCCSc1nnc(-c2cccnc2)o1`, the growth rescue is inactive: 2.97%.

`O=[N+]([O-])c1cc([N+](=O)[O-])c(-c2ccn[nH]2)s1`: the growth rescue was inactive: -61.8%.

As to `CC(C)NC(=O)NP(=O)(Oc1ccccc1)Oc1ccccc1`, the growth rescue was inactive: -7.71%.

As to `CCN(CC)C(=S)SC(NC=O)C(Cl)(Cl)Cl` (stereo not given), the growth rescue was inactive: 18.2%.

Consider `O=C(OC1CN2CCC1CC2)c1cccc2[nH]cnc12` (stereo not given), for which the growth rescue is inactive: 19.9%.

For `Cc1cc(=O)[nH]c(N[N+](=O)[O-])n1`, the growth rescue was inactive: 1.86%.

Consider `O=C(OC1CN2CCC1CC2)C12CC3CC(CC(C3)C1)C2` (stereo not given), for which the growth rescue is inactive: -4.54%.

For `Cc1c2c(nc3ccccc13)SC(C(Cl)Cl)C2` (stereo not given), the growth rescue is inactive: -33.8%.

As to `COc1cc(I)ccc1[As](=O)(O)O`, the growth rescue was inactive: -4.03%.

In the case of `COc1ccc2nc(NP(=O)(c3ccccc3)c3ccccc3)sc2c1`, the growth rescue is inactive: -2.47%.

For `O=P1(N(CCCl)CCCl)Nc2ccccc2N1`, the growth rescue was inactive: -23.5%.

Turning to `COc1ccc(N/C(=N/P(=O)(N2CCOCC2)N2CCOCC2)N2CCOCC2)cc1`, the growth rescue was inactive: -6.27%.

On to `O=[N+]([O-])c1cc(Oc2ccc([N+](=O)[O-])cc2C(F)(F)F)cc([N+](=O)[O-])c1`, for which the growth rescue was inactive: 5.11%.

For the compound `NC(=O)c1cc([N+](=O)[O-])cc([N+](=O)[O-])c1N`, the growth rescue is inactive: 3.57%.

In the case of `Cc1ccc(N/C(=N/P(=O)(N2CCOCC2)N2CCOCC2)N2CCOCC2)cc1`, the growth rescue is inactive: -17.3%.

As for `CN(C(=O)Cc1ccc(Cl)c(Cl)c1)[C@H]1CCCC[C@H]1N1CCCC1`, the growth rescue is inactive: -25.9%.

Regarding `Cc1ccc(OP(=O)(Nc2nccs2)Oc2ccc(C)cc2)cc1`, the growth rescue is inactive: 1.12%.

`COc1ccccc1OP(=O)(Nc1ccc(C)cn1)Oc1ccccc1OC`: the growth rescue was inactive: -7.09%.

As for `CN1CCCC(OC(=O)C(c2ccccc2)c2ccccc2)C1` (stereo not given), the growth rescue is inactive: -13.3%.

As to `Clc1ccc(Cl)c(NC2=NCC(CBr)S2)c1` (stereo not given), the growth rescue was inactive: 3.88%.

In the case of `Nc1cc(N)c2nonc2c1[N+](=O)[O-]`, the growth rescue is inactive: 0.689%.

`CC(C)CC(=O)NC(Sc1ccc(Cl)cc1)C(Cl)(Cl)Cl` (stereo not given): the growth rescue is inactive: 20.7%.

For `O=C(NC(Sc1ccncn1)C(Cl)(Cl)Cl)c1ccccc1` (stereo not given), the growth rescue is inactive: -4.13%.

Turning to `Oc1ccccc1CNc1ccccn1`, the growth rescue was inactive: 10.4%.

On to `O=[N+]([O-])C1C(O)C(O)C([N+](=O)[O-])C(O)C1O` (stereo not given), for which the growth rescue was inactive: -13.4%.
